Experimental data: patent US20050228052A1, “Methods of treating, preventing and managing a sleep disorder using (S)-didesmethylsibutramine” (priority 2004, published 2005)

Sequences of proteins named here, by UniProt entry; tags and fusion partners are left off.
UniProt P31652, whole entry: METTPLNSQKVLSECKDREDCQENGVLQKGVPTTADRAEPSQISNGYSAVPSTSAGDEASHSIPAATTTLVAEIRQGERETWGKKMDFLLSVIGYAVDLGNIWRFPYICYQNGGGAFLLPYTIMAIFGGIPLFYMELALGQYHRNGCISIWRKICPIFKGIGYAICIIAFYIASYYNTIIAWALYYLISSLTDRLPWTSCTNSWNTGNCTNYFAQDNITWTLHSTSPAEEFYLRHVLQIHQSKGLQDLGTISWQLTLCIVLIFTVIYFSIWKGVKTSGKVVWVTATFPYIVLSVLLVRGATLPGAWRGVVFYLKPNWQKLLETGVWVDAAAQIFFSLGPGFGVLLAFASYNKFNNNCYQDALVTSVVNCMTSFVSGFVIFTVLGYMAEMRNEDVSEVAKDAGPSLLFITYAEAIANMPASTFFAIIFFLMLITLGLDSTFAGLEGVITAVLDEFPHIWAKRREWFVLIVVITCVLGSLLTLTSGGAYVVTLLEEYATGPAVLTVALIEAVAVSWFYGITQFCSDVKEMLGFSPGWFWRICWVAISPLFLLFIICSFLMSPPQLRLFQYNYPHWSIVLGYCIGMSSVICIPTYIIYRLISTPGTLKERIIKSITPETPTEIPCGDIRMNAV

Molecular target: serotonin (5-HT) uptake site (Rattus norvegicus, UniProt P31652)
Assay: biochemical
Details: Binding IC50 Values (nM) 5-HT Uptake, rat cerebral cortex
Description: IC50 values (concentration required to inhibit 50% specific binding) were then determined by nonlinear regression analysis of the curves and tabulated below.

[1] = single value or first value before slash

Row | Compound | IC50 [1] [nM] | IC50 (second value after slash, second value after slash, not explained) [nM]
1 | CC(C)CC(N)C1(c2ccc(Cl)cc2)CCC1 (racemic) [(R/S)-DDMS] | 63 | 14
2 | CC(C)C[C@H](N)C1(c2ccc(Cl)cc2)CCC1 [(S)-DDMS, 1-[1-(4-chlorophenyl)cyclobutyl]-3-methyl-butylamine] | 4.3 | –
